Values quoted from earlier work in US7422793B2, “Non-toxic corrosion-protection rinses and seals based on rare earth elements” (University of Dayton, priority 2002, dated 2008).

Conditions: pH 7; cited from earlier work

Q: Which “Solubility in Water” value does the source give for Ammonium tetrafluoroborate here?
A: 2.4 × 10^0 mole/L

Q: For Antimony (III) fluoride, which “Solubility in Water” value is on record?
A: 0.315 mol/L

Q: Which “Solubility in Water” value does the source give for Sodium periodate here?
A: 0.67 mol/L

Q: With Copper (II) fluoride as the substance, how does the “Solubility in Water” value read?
A: 0.462 mol/L

Q: For Tin (II) fluoride, which “Solubility in Water” value is on record?
A: 0.1 mol/L

Q: With Sodium tetrafluoroborate as the substance, how does the “Solubility in Water” value read?
A: 9.8 × 10^0 mole/L

Q: With Sodium germanate as the substance, how does the “Solubility in Water” value read?
A: 1.55 × 10^0 mole/L

Q: With Cobalt (II) fluoride as the substance, how does the “Solubility in Water” value read?
A: 0.155 mol/L

Q: Which “Solubility in Water” value does the source give for Silver (I) fluoride here?
A: 14.3 mol/L
